The text below walks through data of patent publication US20260125679A1, “FINE-TUNING INFLAMMATION BY ALTERING 3'UTR LENGTH” (priority 2023, published 2026).

The subject of the assay is Sindbis virus (SINV). The assay can be described thus: Sindbis virus dual reporter infection of transfected HEK-293T cells (flow cytometry). The format is cell-based. An excerpt:
FIGS. 5A-5E. Ectopic HuB/C/D expression in HEK-293T cells protects against Sindbis virus (SINV) infection. (A-B) Effects of HuB/C/D ectopic expression on the global transcriptome. (A) Volcano plot showing differential expression of genes between WT HEK-293T_HuB/C/D (n=3 biological replicates) vs. WT HEK-293T_EV cells (n=3 biological replicates). Empty vector, EV. […] Ectopically expressed ELAVL2, -3, -4 (HuB, -C, -D) and interferon-stimulated genes (ISGs) are marked with a black border. […] The y-axis represents different pathways, and the x-axis represents the ratio of the differentially expressed genes. Darker red dots represent more significant enrichment. The circle size indicates the number of genes enriched in the pathway. (C-E) EV, HuB, or HuB/C/D transfected WT HEK-293T cells were infected with a Sindbis virus (SINV) dual reporter (MOI=1); BFP reports for SINV genomic mRNA and GFP for SINV subgenomic mRNA. For Pre-IFNβ set, cells were pre-treated with 0.05 nM of IFNβ for 24 hours pre-infection. For Post-IFNβ set, cells were treated with 0.05 nM of IFNβ 1 hour post-infection until harvest. […]
Cells were detached with accumax (Stem Cell Technologies) and fixed using 2% paraformaldehyde for 20 minutes at 4° C. Samples were resuspended in 3% FBS solution and analyzed using a BD LSR Fortessa flow cytometer (BD Biosciences).
A general note: A flow cytometer gives signals particle by particle.

B1: IFNβ: type I interferon used at 0.05 nM as pre- or post-infection treatment (protein, UniProt P01574 22-187, looked up)
Interferon beta: MSYNLLGFLQRSSNFQCQKLLWQLNGRLEYCLKDRMNFDIPEEIKQLQQFQKEDAALTIYEMLQNIFAIFRQDSSSTGWNETIVENLLANVYHQINHLKTVLEEKLEKEDFTRGKLMSSLHLKRYYGRILHYLKAKEYSHCAWTIVRVEILRNFYFINRLTGYLRN
As for B1, the “antiviral activity against SINV” value is reported as “more potent antiviral activity” (0.05 nM IFNβ for 24 hours pre-infection) and “some protective effect” (0.05 nM IFNβ from 1 hour post-infection until harvest).
